From PMC8868331, “Hydroxamic Acid as a Potent Metal-Binding Group for Inhibiting Tyrosinase” (Antioxidants, 2022)

Protein sequences, listed by entry. Tags and fused reporters are not part of them. Residues count along the entry.
UniProt C7FF04, 1-392 limits assumed: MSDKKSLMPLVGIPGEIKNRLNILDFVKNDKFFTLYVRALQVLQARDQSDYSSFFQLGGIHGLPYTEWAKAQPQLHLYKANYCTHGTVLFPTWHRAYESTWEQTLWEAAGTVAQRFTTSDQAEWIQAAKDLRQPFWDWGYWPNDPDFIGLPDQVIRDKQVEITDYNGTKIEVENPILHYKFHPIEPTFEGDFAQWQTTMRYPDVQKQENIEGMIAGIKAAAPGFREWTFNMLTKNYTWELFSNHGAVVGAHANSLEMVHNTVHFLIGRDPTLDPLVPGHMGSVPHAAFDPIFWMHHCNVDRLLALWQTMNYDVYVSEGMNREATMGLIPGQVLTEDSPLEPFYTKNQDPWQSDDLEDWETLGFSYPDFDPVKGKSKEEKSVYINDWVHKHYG

Experiments:
[1] = target: T1, mushroom tyrosinase (Agaricus bisporus, UniProt C7FF04); assay: Differential scanning fluorimetry (DSF) with SYPRO Orange; format: binding; conditions: 500 μM inhibitor; mean ± SD of three experiments; DMSO control 49.16
[2] = target: T1, mushroom tyrosinase; conditions: cited from earlier work
[3] = target: mushroom tyrosinase from Agaricus bisporus (Agaricus bisporus, UniProt C7FF04); assay: Enzyme-activity assay with mushroom tyrosinase, L-DOPA substrate, dopachrome absorbance at 475 nm; format: biochemical
[4] = target: tyrosinase (Agaricus bisporus, UniProt C7FF04); assay: Enzyme-inhibitory kinetics (Michaelis-Menten fitting with inhibition models); format: biochemical, mushroom; conditions: model chosen by F-test on reduced χ2

O=C(CCCCCCC(=O)Nc1ccccc1)NO [Vorinostat, suberanilohydroxamic acid]
Tm [1]: 47.50 ± 0.07 °C
Inhibition against mushroom tyrosinase (in words) [2]: little inhibition
Ki values as worded in the text (words or range with mixed units) [3]: submicromolar range
Kinetics model (mode of inhibition) [4]: noncompetitive
